In PMC12396409, “Screening and hit evaluation of a microbial metabolite library against the pathogenic Plasmodium falciparum and Toxoplasma gondii parasites” (International Journal for Parasitology: Drugs and Drug …, 2025):

Test: in vitro
Details: human

With `COc1ccc2c3c(c4cc(OC)c(OC)cc4c2c1)C[C@H]1CCCCN1C3` [Cryptopleurine] the IC50 was 27 nM.
